Here are results for 1 substance from patent US20080038267A1, “Treatment Of Cancer” (NEUTEC PHARMA LIMITED, priority 2004, published 2008).

For experiment [1], the system named is MCF7 cells. The experiment can be described thus: Cell Titer Blue viability, single drug, MCF7 cells. The format is cell-based, human. The note with it: Herceptin alone. On the procedure: Viable cells reduce resazurin to resorufin (pink). Cell growth was evaluated as described above. […] The cell lines were split and cells counted. […] The next day, the cells were observed under phase contrast microscopy to ensure they had adhered to the plates and the supernatant medium removed by aspiration. […] Human breast adenocarcinoma cell line MCF7, expressing both wild type and variant oestrogen receptors as well a progesterone receptor, was obtained from ECACC (ECACC number—86012803).

Experiment [2] deals with HS578T cells. The experiment can be described thus: Cell Titer Blue viability, single drug, HS578T cells. The format is cell-based, human. The settings on record: 48 hour incubation. On the procedure:
Viable cells reduce resazurin to resorufin (pink). Cell growth was evaluated as described above. […] The cell lines were split and cells counted. […] The next day, the cells were observed under phase contrast microscopy to ensure they had adhered to the plates and the supernatant medium removed by aspiration. […] Experiments were also performed with HS578T cells using the above methodologies, and results are given below. HS578T—ECACC number 86082104, Human breast carcinoma, Epithelial. Tumorigenic in immunosuppressed mice and form colonies in semisolid medium. Oestrogen receptor negative.

Take “Herceptin: monoclonal antibody used for the treatment of HER2 protein overexpressing metastatic breast cancer”: in experiment [1], the “activity of the single agent” value is “no detectable activity”. Further, the IC50 (as a rule, the concentration that gives 50% inhibition) in experiment [2] was more than 200 µg/mL.
